Chains of the proteins cited; added tags and fusions are not shown.
UniProt P47900, whole entry S317A: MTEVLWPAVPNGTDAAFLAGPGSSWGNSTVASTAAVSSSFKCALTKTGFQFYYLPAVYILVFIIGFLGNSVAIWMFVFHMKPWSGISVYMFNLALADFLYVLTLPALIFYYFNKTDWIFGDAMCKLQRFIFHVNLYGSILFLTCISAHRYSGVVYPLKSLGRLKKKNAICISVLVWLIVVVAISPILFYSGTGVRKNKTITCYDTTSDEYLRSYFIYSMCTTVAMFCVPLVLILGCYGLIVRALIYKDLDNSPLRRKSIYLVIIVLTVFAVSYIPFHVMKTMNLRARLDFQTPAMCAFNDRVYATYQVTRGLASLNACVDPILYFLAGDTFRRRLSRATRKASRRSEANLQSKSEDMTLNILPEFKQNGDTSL
UniProt P47900, whole entry T222A: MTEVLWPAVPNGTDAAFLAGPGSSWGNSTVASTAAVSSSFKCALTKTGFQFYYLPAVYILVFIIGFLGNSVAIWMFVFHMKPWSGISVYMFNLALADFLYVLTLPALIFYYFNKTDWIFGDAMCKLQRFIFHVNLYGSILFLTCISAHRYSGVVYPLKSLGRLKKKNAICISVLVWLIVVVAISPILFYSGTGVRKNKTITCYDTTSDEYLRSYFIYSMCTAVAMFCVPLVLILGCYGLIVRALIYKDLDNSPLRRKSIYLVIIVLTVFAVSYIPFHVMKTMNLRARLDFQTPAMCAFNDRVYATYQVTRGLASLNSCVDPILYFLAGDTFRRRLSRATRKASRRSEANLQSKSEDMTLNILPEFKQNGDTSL
UniProt P47900, whole entry R310K: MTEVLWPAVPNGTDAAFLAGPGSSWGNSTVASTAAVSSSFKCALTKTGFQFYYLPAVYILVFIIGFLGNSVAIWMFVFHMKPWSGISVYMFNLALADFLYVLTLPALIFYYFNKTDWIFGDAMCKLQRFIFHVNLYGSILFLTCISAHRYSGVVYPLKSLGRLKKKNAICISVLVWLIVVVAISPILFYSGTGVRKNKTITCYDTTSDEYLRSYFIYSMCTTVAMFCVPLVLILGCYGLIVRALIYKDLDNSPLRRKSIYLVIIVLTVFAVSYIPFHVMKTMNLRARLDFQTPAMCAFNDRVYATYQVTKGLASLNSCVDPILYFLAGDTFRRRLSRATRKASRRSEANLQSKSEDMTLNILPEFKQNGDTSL
UniProt P47900, whole entry Q307A: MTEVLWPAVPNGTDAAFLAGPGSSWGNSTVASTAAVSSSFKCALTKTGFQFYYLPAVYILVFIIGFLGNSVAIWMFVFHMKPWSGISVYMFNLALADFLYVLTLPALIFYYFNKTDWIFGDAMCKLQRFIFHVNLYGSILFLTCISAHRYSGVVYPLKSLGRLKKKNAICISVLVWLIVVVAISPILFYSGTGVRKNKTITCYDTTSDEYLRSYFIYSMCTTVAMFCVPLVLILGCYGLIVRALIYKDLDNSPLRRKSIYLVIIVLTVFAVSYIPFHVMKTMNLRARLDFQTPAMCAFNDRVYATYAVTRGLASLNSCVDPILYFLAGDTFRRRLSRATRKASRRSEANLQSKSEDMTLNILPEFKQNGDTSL
UniProt P47900, whole entry H277A: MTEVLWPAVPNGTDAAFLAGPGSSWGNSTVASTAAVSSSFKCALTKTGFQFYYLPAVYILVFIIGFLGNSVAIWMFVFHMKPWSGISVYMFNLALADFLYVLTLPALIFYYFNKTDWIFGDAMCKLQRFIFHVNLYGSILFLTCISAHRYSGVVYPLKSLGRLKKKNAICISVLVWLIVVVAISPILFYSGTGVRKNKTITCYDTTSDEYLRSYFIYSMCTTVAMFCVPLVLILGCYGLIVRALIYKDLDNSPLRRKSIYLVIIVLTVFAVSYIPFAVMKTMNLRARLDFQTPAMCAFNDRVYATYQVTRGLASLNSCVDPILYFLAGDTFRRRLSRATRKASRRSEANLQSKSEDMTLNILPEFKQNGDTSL
UniProt P47900, whole entry F131A: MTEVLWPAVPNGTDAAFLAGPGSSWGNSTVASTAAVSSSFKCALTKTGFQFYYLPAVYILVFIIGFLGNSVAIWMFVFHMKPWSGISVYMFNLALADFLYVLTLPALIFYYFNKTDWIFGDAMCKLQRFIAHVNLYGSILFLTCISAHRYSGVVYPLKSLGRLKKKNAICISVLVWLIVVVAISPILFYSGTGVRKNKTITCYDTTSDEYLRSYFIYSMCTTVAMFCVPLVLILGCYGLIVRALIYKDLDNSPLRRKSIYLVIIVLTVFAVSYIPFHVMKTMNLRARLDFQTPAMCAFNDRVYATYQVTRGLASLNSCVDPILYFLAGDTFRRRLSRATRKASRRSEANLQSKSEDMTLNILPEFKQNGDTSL
UniProt P47900, whole entry H132A: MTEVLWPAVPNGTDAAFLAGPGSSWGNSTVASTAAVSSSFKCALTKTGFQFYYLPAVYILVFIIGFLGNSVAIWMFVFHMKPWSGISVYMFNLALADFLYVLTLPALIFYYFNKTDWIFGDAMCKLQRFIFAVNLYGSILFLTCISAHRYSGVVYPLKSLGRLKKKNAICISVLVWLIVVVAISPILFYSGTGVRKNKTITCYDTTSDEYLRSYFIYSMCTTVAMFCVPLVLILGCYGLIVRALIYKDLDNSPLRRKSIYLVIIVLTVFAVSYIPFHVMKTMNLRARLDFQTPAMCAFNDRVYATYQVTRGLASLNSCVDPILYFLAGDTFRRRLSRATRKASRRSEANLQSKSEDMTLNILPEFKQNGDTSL
UniProt P47900, whole entry S314T: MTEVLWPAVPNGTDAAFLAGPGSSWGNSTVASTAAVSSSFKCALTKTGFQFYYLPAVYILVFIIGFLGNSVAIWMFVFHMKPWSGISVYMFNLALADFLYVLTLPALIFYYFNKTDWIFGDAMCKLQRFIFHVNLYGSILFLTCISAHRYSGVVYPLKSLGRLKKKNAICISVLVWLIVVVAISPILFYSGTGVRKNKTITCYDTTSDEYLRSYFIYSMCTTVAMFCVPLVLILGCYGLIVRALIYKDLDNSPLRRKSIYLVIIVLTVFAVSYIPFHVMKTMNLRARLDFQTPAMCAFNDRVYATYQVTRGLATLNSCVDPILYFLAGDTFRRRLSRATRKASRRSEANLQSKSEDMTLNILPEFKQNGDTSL
UniProt P47900, whole entry K280A: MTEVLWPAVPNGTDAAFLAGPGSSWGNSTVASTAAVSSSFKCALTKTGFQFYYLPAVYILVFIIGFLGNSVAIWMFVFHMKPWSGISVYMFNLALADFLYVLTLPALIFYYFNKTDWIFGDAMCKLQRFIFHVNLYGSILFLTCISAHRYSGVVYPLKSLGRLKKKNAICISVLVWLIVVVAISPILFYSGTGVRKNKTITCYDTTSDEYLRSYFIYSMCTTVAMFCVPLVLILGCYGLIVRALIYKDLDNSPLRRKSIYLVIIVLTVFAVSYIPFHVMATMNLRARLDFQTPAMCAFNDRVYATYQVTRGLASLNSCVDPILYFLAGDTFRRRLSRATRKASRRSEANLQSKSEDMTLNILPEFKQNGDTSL
UniProt P47900, whole entry Y136A: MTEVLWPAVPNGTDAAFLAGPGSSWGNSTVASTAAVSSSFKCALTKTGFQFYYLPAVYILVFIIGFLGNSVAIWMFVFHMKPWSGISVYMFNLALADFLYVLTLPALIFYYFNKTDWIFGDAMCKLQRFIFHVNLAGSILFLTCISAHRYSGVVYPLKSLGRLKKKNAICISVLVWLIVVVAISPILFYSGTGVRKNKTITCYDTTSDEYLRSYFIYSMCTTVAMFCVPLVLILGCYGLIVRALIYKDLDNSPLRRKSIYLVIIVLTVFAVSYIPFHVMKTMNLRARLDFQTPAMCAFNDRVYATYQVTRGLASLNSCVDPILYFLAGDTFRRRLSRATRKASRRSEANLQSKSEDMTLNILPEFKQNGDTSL
UniProt P47900, whole entry F226A: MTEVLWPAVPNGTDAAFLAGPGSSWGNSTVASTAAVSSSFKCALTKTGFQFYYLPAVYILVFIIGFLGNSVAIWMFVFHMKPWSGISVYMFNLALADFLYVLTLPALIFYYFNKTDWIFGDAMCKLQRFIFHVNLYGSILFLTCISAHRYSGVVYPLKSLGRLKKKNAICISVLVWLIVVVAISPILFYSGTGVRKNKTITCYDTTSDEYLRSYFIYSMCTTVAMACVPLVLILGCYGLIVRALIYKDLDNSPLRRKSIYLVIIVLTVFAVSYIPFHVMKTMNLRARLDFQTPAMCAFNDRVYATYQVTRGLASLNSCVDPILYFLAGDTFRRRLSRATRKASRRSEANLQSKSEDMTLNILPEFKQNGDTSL
UniProt P47900, whole entry T221A: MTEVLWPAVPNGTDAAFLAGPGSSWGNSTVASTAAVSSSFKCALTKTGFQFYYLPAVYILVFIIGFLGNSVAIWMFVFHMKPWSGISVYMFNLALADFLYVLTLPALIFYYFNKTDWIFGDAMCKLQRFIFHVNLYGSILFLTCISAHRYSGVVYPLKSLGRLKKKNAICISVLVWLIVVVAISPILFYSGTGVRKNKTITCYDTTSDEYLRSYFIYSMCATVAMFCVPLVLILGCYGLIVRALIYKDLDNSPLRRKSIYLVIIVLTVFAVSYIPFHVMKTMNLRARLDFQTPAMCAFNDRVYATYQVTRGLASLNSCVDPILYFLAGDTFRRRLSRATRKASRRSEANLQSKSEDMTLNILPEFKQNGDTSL

In ChEMBL document CHEMBL1131534, “Human P2Y1 receptor: molecular modeling and site-directed mutagenesis as tools to identify agonist and antagonist recognition sites” (J Med Chem, 1998):

Columns and labels:
Format in all cases: functional
P2Y purinoceptor 1 [1] = target: T1, P2Y purinoceptor 1 (Homo sapiens, UniProt P47900, S317A); experiment: Compound was measured for the antagonism of the activation of phospholipase C in mutant(S317A) human P2Y1 receptor.
P2Y purinoceptor 1 [2] = target: T2, P2Y purinoceptor 1 (Homo sapiens, UniProt P47900, T222A); experiment: Compound was measured for the antagonism of the activation of phospholipase C in mutant(T222A) human P2Y1 receptor.
P2Y purinoceptor 1 [3] = target: T3, P2Y purinoceptor 1 (Homo sapiens, UniProt P47900, R310K); experiment: Compound was measured for the antagonism of the activation of phospholipase C in mutant(R310K) human P2Y1 receptor in presence of MRS2179
P2Y purinoceptor 1 [4] = target: T4, P2Y purinoceptor 1 (Homo sapiens, UniProt P47900, Q307A); experiment: Compound was measured for the antagonism of the activation of phospholipase C in mutant(Q307A) human P2Y1 receptor in presence of MRS2179
P2Y purinoceptor 1 [5] = target: T5, P2Y purinoceptor 1 (Homo sapiens, UniProt P47900, H277A); experiment: Compound was measured for the antagonism of the activation of phospholipase C in mutant(H277A) human P2Y1 receptor.
P2Y purinoceptor 1 [6] = target: P2Y purinoceptor 1 (Homo sapiens, UniProt P47900, F131A); experiment: Compound was measured for the antagonism of the activation of phospholipase C in mutant(F131A) human P2Y1 receptor.
P2Y purinoceptor 1 [7] = target: T6, P2Y purinoceptor 1 (Homo sapiens, UniProt P47900, H132A); experiment: Compound was measured for the antagonism of the activation of phospholipase C in mutant(H132A) human P2Y1 receptor in presence of MRS2179 (P<0.005)
P2Y purinoceptor 1 [8] = target: T7, P2Y purinoceptor 1 (Homo sapiens, UniProt P47900); experiment: Compound was measured for the antagonism of the activation of phospholipase C in mutant(WT) human P2Y1 receptor.
P2Y purinoceptor 1 [9] = target: T8, P2Y purinoceptor 1 (Homo sapiens, UniProt P47900, S314T); experiment: Compound was measured for the antagonism of the activation of phospholipase C in mutant(S314T) human P2Y1 receptor.
P2Y purinoceptor 1 [10] = target: T2, P2Y purinoceptor 1; experiment: Compound was measured for the antagonism of the activation of phospholipase C in mutant(T222A) human P2Y1 receptor in presence of MRS2179 (P<0.005)
P2Y purinoceptor 1 [11] = target: T9, P2Y purinoceptor 1 (Homo sapiens, UniProt P47900, K280A); experiment: Compound was measured for the antagonism of the activation of phospholipase C in mutant(K280A) human P2Y1 receptor in presence of MRS2179
P2Y purinoceptor 1 [12] = target: T7, P2Y purinoceptor 1; experiment: Compound was measured for the antagonism of the activation of phospholipase C in mutant(WT) human P2Y1 receptor in presence of MRS2179 (P<0.005)
P2Y purinoceptor 1 [13] = target: T10, P2Y purinoceptor 1 (Homo sapiens, UniProt P47900, Y136A); experiment: Compound was measured for the antagonism of the activation of phospholipase C in mutant(Y136A) human P2Y1 receptor in presence of MRS2179 (P<0.005)
P2Y purinoceptor 1 [14] = target: T11, P2Y purinoceptor 1 (Homo sapiens, UniProt P47900, F226A); experiment: Compound was measured for the antagonism of the activation of phospholipase C in mutant(F226A) human P2Y1 receptor in presence of MRS2179.
P2Y purinoceptor 1 [15] = target: T10, P2Y purinoceptor 1; experiment: Compound was measured for the antagonism of the activation of phospholipase C in mutant(Y136A) human P2Y1 receptor.
P2Y purinoceptor 1 [16] = target: T1, P2Y purinoceptor 1; experiment: Compound was measured for the antagonism of the activation of phospholipase C in mutant(S317A) human P2Y1 receptor in presence of MRS2179
P2Y purinoceptor 1 [17] = target: T9, P2Y purinoceptor 1; experiment: Compound was measured for the antagonism of the activation of phospholipase C in mutant(K280A) human P2Y1 receptor.
P2Y purinoceptor 1 [18] = target: T3, P2Y purinoceptor 1; experiment: Compound was measured for the antagonism of the activation of phospholipase C in mutant(R310K) human P2Y1 receptor.
P2Y purinoceptor 1 [19] = target: T8, P2Y purinoceptor 1; experiment: Compound was measured for the antagonism of the activation of phospholipase C in mutant(S314T) human P2Y1 receptor in presence of MRS2179
P2Y purinoceptor 1 [20] = target: T4, P2Y purinoceptor 1; experiment: Compound was measured for the antagonism of the activation of phospholipase C in mutant(Q307A) human P2Y1 receptor.
P2Y purinoceptor 1 [21] = target: T6, P2Y purinoceptor 1; experiment: Compound was measured for the antagonism of the activation of phospholipase C in mutant(H132A) human P2Y1 receptor.
P2Y purinoceptor 1 [22] = target: T12, P2Y purinoceptor 1 (Homo sapiens, UniProt P47900, T221A); experiment: Compound was measured for the antagonism of the activation of phospholipase C in mutant(T221A) human P2Y1 receptor.
P2Y purinoceptor 1 [23] = target: T5, P2Y purinoceptor 1; experiment: Compound was measured for the antagonism of the activation of phospholipase C in mutant(H277A) human P2Y1 receptor in presence of MRS2179
P2Y purinoceptor 1 [24] = target: T11, P2Y purinoceptor 1; experiment: Compound was measured for the antagonism of the activation of phospholipase C in mutant(F226A) human P2Y1 receptor.
P2Y purinoceptor 1 [25] = target: T12, P2Y purinoceptor 1; experiment: Compound was measured for the antagonism of the activation of phospholipase C in mutant(T221A) human P2Y1 receptor in presence of MRS2179 (P<0.005)

With `CSc1nc(N)c2ncn([C@@H]3O[C@H](COP(=O)(O)OP(=O)(O)O)[C@@H](O)[C@H]3O)c2n1` the EC50 (P2Y purinoceptor 1 [1]) was 1.88 nM, the EC50 (P2Y purinoceptor 1 [2]) was 10.9 nM and the EC50 (P2Y purinoceptor 1 [3]) was 2270 nM. The EC50 (P2Y purinoceptor 1 [4]) was 378 nM, the EC50 (P2Y purinoceptor 1 [5]) was 115 nM and the EC50 (P2Y purinoceptor 1 [6]) was 19.2 nM. For the same compound, the EC50 (P2Y purinoceptor 1 [7]) was 53 nM, the EC50 (P2Y purinoceptor 1 [8]) was 1.94 nM and the EC50 (P2Y purinoceptor 1 [9]) was 10.4 nM. For the same compound, the EC50 (P2Y purinoceptor 1 [10]) was 25 nM, the EC50 (P2Y purinoceptor 1 [11]) was 1580 nM and the EC50 (P2Y purinoceptor 1 [12]) was 12.9 nM. The EC50 (P2Y purinoceptor 1 [13]) was 36 nM, the EC50 (P2Y purinoceptor 1 [14]) was 27 nM and the EC50 (P2Y purinoceptor 1 [15]) was 12.3 nM. The EC50 (P2Y purinoceptor 1 [16]) was 12.1 nM, the EC50 (P2Y purinoceptor 1 [17]) was 1520 nM and the EC50 (P2Y purinoceptor 1 [18]) was 324 nM. For the same compound, the EC50 (P2Y purinoceptor 1 [19]) was 30.9 nM, the EC50 (P2Y purinoceptor 1 [20]) was 323 nM and the EC50 (P2Y purinoceptor 1 [21]) was 17.7 nM. It also gave an EC50 (P2Y purinoceptor 1 [22]) of 2.45 nM, an EC50 (P2Y purinoceptor 1 [23]) of 738 nM and an EC50 (P2Y purinoceptor 1 [24]) of 19.5 nM. It also gave an EC50 (P2Y purinoceptor 1 [25]) of 12.4 nM.
